Test: Surrogate activity-based plasma stability assay
Format: in vitro ADME
Details: 5% rat plasma, 37° C., EC50 at t0 and t24 hrs; Table 2

## Albumin-TPA-O2Oc-O2Oc-O2Oc-O2Oc-Q-R-P-R-L-a-H-K-G-P-f-a-f-OH [Example 64]
  Surrogate activity-based Plasma stability t½: >1000 min

Reference: patent US10005829B2, “Synthetic linear apelin mimetics for the treatment of heart failure” (priority 2012, dated 2018)
